Values quoted from earlier work, collected in patent US7211602B2, “Treatment of neurodegenerative disorders through the modulation of the polyamine pathway” (ALS Therapy Development Foundation, Inc., priority 2001, dated 2007).

Tested on: patients with ALS
Conditions: Bensimon et al. 1994; Lacomblez et al. 1996; cited from earlier work

In the case of `Nc1nc2ccc(OC(F)(F)F)cc2s1` [riluzole], the “effect on survival of patients with ALS” value is listed as “statistically significant effects on survival”.
